Measurements from patent US9095541B2, “Brain tumor targeting peptides and methods” (Arch Cancer Therapeutics, Inc., priority 2009, dated 2015).

Tested on: U87R cells
Assay: Transwell migration assay through brain-like matrix coated membranes, U87R
Format: cell-based, human
Conditions: cholesterol oxidase 1.8 U/mL, 4 hours
Method: Plating serial dilutions of phage with host bacteria on agarose plates was used to isolate phage subclones. Individual clones were isolated, amplified and tested for their inhibitory ability in in vitro invasion assays. […] Assessing the effects of LPS or random phage controlled for potential contamination by the host bacterial culture;
FIG. 3A is a bar graph showing that cholesterol oxidase inhibits cell migration. The invasive U87R cells were plated on matrix-coated transwell membranes and treated with cholesterol oxidase (1.8 U/mL) for 4 hours. Cells that migrated to the underside of the transwell membrane were stained with crystal violet and counted by light microscopy;
The membranes of 8 μm pore sized transwell inserts (Corning Costar) were coated with brain-like matrix (720 μL of 3 mg/mL collagen I (PureCol); 180 μL of 10×DMEM (Invitrogen); 9 uL of 1 mg/mL human plasma fibronectin (Sigma); 9 uL of 1 mg/mL chondroitin sulfate proteoglycans (Chemicon); 16 μL of 0.15 mg/mL laminin (Chemicon)) on both sides, allowed to dry, then plated with 5×10^4 cells in 100 μL media in the upper chamber and 500 μL media in the lower chamber. Inclusion of collagen was essential to see the inhibitory effect of H10 (FIG. S4). […] Cells which had migrated to the undersurface of the membranes were counted by light microscopy, and the sum of cells in five microscopic fields was recorded for each membrane.

cholesterol oxidase
migration of U87R cells: abrogated
